According to ChEMBL document CHEMBL3351803, “5Z-7-Oxozeaenol covalently binds to MAP2K7 at Cys218 in an unprecedented manner” (Bioorg Med Chem Lett, 2015):

Biological target: T1, Mitogen-activated protein kinase kinase kinase 7 (Homo sapiens, UniProt O43318)
T1 sequence (O43318 whole entry): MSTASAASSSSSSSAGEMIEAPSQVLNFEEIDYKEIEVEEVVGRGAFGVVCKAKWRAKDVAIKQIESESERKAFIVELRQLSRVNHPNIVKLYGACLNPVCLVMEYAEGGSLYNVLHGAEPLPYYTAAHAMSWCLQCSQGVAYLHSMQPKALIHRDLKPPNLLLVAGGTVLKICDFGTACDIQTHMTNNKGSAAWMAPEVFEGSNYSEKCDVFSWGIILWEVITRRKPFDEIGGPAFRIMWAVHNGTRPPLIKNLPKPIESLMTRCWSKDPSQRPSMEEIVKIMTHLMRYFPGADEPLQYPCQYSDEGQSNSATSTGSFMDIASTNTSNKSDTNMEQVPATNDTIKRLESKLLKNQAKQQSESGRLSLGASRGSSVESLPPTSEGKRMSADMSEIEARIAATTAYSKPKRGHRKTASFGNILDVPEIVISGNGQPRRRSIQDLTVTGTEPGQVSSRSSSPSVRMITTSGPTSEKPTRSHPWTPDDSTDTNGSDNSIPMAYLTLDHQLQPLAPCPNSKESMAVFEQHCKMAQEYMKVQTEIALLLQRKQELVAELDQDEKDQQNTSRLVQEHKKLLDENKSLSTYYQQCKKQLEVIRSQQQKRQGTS
Assay: Inhibition of TAK1 (unknown origin) using unphosphorylated GST-tagged MAP2K7 substrate protein assessed as phosphorylation by ELISA

COc1cc(O)c2c(c1)/C=C/C[C@H](O)[C@H](O)C(=O)/C=C\C[C@H](C)OC2=O was tested. Which IC50 did it give?
Its IC50 is 80 nM.
